Test results taken from PubChem BioAssay AID1663 (Broad Institute, 2009).
This is a selection; strong and weak results do not stand in their true shares. Some of these compounds have results that are not shown, active ones among them. Activity calls are given as the source filed them.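 Rule for the calls: active = mean replicate score, as percent of positive control, at or above 50; inconclusive = mean below 50 but at least one replicate at or above 50; inactive = mean and every replicate below 50.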

Test: inhibitors of platelet dense granule secretion, primary screen, cell-based, MLPCN, human platelets (AID 1663)
Conditions: human platelet-rich plasma, SFLLRN dense granule ATP release, luminescence; stronger effect = higher value;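 compounds screened at 7.5 µM in platelet-rich plasma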

**Q.** For `COc1cc(C(=O)NCC2(N(C)C)CCCCC2)c([N+](=O)[O-])cc1OC`, which inhibition is on record?
**A.** inactive: -5.62%

**Q.** Which inhibition does the source give for `CN(C)C1(CNC(=O)c2ccc(Br)cc2)CCCCC1` here?
**A.** inactive: 13.4%

**Q.** Which inhibition does the source give for `O=C(NCC1(N2CCCCC2)CCCCC1)c1cccc(Cl)c1` here?
**A.** inactive: -1.58%

**Q.** Which inhibition does the source give for `COc1cccc(C(=O)NCC2(N3CCCCC3)CCCCC2)c1` here?
**A.** inactive: 0.482%

**Q.** Which inhibition does the source give for `COc1ccc(Cl)cc1C(=O)NCC1(N(C)C)CCCCC1` here?
**A.** inactive: -1.75%

**Q.** With `O=C(OC1CN2CCC1CC2)C(CO)(c1ccccc1)c1ccccc1` (centres undefined) as the compound, how does the inhibition read?
**A.** inactive: 4.7%

**Q.** For `CN(C)c1cccc(C(=O)NCC2(N(C)C)CCCCC2)c1`, which inhibition is on record?
**A.** inactive: 5.84%

**Q.** For `CC(C)Oc1ccc(C(=O)NCC2(N(C)C)CCCCC2)cc1`, which inhibition is on record?
**A.** inactive: 7.02%

**Q.** With `COc1ccc(Br)c(C(=O)NCC2(N3CCCCC3)CCCCC2)c1` as the compound, how does the inhibition read?
**A.** inactive: -1.52%

**Q.** With `CN1[C@@H]2CC[C@H]1CC(OC(=O)C(O)(c1ccccc1)c1ccccc1)C2` (some centres undefined) as the compound, how does the inhibition read?
**A.** inactive: -0.518%

**Q.** With `O=C(NCC1(N2CCCCC2)CCCCC1)c1cc([N+](=O)[O-])ccc1Cl` as the compound, how does the inhibition read?
**A.** inactive: -2.17%

**Q.** With `Cc1ccc(C(=O)NCC2(N3CCCCC3)CCCCC2)cc1` as the compound, how does the inhibition read?
**A.** inactive: 9.03%

**Q.** With `CC(C)N1C(=O)CC2(CCN(CCOC(=O)C(O)(c3ccccc3)c3ccccc3)CC2)C1=O` as the compound, how does the inhibition read?
**A.** inactive: -4.06%

**Q.** With `CCN(CC)CC(C)C(C)OC(=O)C(O)(c1ccccc1)c1ccccc1` (centres undefined) as the compound, how does the inhibition read?
**A.** inactive: -17.4%

**Q.** For `COc1cc(SC)ccc1C(=O)NCC1(N(C)C)CCCCC1`, which inhibition is on record?
**A.** inactive: 1.7%

**Q.** Which inhibition does the source give for `Cc1ccccc1C(=O)NCC1(N2CCCCC2)CCCCC1` here?
**A.** inactive: -5.66%

**Q.** For `CN(C)c1ccc(C(=O)NCC2(N(C)C)CCCCC2)cc1`, which inhibition is on record?
**A.** inactive: -1.93%

**Q.** Which inhibition does the source give for `CN(C)C1CCCC1OC(=O)C(O)(c1ccccc1)c1ccccc1` (centres undefined) here?
**A.** inactive: 8.81%

**Q.** Which inhibition does the source give for `CCN1CCCC(OC(=O)C2(O)c3ccccc3C=Cc3ccccc32)C1` (centres undefined) here?
**A.** inactive: -13.5%

**Q.** For `Cc1cc(C(=O)NCC2(N3CCCCC3)CCCCC2)ccc1[N+](=O)[O-]`, which inhibition is on record?
**A.** inactive: 5.31%

**Q.** For `O=C(NCC1(N2CCCCC2)CCCCC1)c1cccc(Br)c1`, which inhibition is on record?
**A.** inactive: -7.3%

**Q.** Which inhibition does the source give for `COc1ccc(C(=O)NCC2(N(C)C)CCCCC2)cc1` here?
**A.** inactive: 3.83%

**Q.** For `C=CCN1CCN(CCOC(=O)C(O)(c2ccccc2)c2ccccc2)CC1`, which inhibition is on record?
**A.** inactive: -0.989%

**Q.** For `O=C(NCC1(N2CCCCC2)CCCCC1)c1cc(F)c(F)cc1Cl`, which inhibition is on record?
**A.** inactive: 15.8%
